Earlier results on one compound are cited in PMC3400110 (Journal of Medicinal Chemistry, 2009).

Chains of the proteins cited; added tags and fusions are not shown.
UniProt P08183, whole entry: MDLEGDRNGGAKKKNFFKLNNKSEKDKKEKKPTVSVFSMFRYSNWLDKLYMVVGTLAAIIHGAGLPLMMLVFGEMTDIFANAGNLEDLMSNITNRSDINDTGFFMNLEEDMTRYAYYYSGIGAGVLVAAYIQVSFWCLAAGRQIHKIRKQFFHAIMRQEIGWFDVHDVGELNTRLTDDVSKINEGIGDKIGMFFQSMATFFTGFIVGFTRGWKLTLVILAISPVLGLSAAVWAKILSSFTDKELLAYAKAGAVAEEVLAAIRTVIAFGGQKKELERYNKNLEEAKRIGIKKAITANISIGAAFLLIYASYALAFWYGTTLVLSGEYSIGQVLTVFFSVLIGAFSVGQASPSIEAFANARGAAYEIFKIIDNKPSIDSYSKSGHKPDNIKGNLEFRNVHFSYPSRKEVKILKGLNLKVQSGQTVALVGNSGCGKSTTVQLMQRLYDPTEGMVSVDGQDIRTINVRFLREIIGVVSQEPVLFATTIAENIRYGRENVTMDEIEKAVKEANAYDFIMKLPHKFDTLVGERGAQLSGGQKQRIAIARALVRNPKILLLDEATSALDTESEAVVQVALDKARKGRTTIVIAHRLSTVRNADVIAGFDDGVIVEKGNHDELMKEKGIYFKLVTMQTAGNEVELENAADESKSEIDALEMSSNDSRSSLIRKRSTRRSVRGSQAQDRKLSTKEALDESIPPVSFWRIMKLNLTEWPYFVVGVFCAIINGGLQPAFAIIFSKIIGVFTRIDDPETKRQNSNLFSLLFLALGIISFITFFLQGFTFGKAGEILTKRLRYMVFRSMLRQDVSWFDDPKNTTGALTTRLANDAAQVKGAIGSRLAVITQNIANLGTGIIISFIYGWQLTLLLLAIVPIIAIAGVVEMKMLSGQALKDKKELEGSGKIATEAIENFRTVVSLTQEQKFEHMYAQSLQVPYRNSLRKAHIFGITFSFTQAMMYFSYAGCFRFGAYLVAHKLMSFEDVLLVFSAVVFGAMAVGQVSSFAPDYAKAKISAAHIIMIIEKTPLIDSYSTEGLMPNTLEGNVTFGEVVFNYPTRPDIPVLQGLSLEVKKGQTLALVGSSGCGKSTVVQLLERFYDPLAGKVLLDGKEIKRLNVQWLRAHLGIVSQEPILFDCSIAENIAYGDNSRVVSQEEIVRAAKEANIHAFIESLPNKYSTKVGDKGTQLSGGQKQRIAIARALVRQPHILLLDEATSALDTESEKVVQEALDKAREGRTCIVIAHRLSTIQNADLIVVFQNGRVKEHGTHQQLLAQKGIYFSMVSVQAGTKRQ

In the data set the target is human P-gp (Homo sapiens, UniProt P08183). The settings on record: cited from earlier work.

SMILES strings stand for the structures.

`O[C@@H](COc1cccc2ncccc12)CN1CCN([C@@H]2c3ccccc3[C@@H]3[C@H](c4ccccc42)C3(Cl)Cl)CC1` [Compound 42]: the IC50 – broadly, the midpoint of a concentration-inhibition curve – was 6.5 ± 1.1 nM.
